Reference: ChEMBL document CHEMBL1201862, “PubChem BioAssay data set” (2004)
Counter-ions that a name gives are not always drawn. Activity calls are given as the source filed them.

Chains of the proteins cited; added tags and fusions are not shown. Lines headed by an entry give the natural chain unless they say otherwise; changes in a name come on top.
UniProt P35372, whole entry: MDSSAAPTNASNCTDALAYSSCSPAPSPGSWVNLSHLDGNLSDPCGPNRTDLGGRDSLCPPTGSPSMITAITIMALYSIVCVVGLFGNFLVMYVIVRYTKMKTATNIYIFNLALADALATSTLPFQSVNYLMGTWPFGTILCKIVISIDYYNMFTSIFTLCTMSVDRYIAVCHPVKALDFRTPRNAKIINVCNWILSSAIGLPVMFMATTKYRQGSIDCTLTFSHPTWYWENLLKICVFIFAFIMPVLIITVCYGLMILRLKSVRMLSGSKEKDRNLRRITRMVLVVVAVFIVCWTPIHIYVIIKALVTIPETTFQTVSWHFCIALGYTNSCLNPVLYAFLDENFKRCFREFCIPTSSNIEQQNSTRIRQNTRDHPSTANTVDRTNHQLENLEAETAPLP
UniProt P35363, whole entry: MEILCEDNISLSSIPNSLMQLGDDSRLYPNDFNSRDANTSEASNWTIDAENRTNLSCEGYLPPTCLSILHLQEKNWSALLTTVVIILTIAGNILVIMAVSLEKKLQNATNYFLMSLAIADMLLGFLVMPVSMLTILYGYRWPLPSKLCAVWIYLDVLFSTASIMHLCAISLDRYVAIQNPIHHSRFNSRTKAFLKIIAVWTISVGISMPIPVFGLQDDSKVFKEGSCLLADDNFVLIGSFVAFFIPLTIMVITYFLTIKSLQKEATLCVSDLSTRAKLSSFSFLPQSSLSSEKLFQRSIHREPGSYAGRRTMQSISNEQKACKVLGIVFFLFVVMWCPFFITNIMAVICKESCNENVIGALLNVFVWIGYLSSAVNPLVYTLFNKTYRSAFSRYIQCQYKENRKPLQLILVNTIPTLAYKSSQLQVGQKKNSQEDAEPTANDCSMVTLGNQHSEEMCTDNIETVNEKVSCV
UniProt P54578: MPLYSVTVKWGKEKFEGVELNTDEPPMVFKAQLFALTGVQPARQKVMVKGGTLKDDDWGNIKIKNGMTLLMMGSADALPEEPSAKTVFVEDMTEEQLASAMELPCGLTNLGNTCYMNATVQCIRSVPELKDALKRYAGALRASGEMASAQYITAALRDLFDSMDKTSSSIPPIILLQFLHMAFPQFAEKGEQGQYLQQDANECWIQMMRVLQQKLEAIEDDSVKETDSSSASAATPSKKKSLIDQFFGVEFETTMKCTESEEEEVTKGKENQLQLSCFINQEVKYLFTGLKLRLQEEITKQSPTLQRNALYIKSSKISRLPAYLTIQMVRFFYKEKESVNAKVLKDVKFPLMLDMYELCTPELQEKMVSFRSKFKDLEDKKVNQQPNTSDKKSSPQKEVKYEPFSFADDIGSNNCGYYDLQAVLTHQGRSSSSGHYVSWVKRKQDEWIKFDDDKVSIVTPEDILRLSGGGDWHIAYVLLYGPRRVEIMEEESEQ

Assays:
Mu-type opioid receptor = Mu-type opioid receptor (Homo sapiens, UniProt P35372); type: functional, cell-based;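 further: U2OS cells with beta-arrestin recruitment to OPRM1 by beta-gal complementation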
[1] = biological target: 5-hydroxytryptamine receptor 2A (Mus musculus, UniProt P35363); type: functional, cell-based;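 further: CHO-K1 cells with tagged receptor and beta-arrestin; agonist potency measured as compound-induced activation of the receptor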
[2] = biological target: Ubiquitin carboxyl-terminal hydrolase 14 (Homo sapiens, UniProt P54578)
[3] = test system: Streptococcus sp. 'group A'; assay: Streptococcus pyogenes SK(-)GAS viability under kanamycin – luminescence, BacTiterGlo, confirmation, counter-screen for streptokinase expression inhibitor project, dose response (AID 1900); type: functional, organism-based
Streptococcus = assay: GAS UMAA2166 growth inhibition – luminescence, BacTiterGlo, counter-screen for streptokinase expression inhibitor project, dose response (AID 1915); type: functional, organism-based;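 further: potency for reduction of bacterial viability or growth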

For `Nc1c2c(nc3ccccc13)CCCC2`, the EC50 (Mu-type opioid receptor) was inactive: 92.5 µM and the EC50 [1] was active: 2.66 µM.
With `Cc1cc(C(=O)CN2CCCC2)c(C)n1-c1ccc(F)cc1` the IC50 [2] was active: 5 µM.
`CN(C)C(=N)NC(=N)N` [METFORMIN HYDROCHLORIDE] was tested, and the EC50 [3] was active: 4.08 µM and the EC50 (Streptococcus) was > 50 µM (not active).
